pIC50: −log10 of the molar value.
How the values were obtained:
[1] = tested on: bone marrow derived mast cells (BMMC); experiment: BMMC high cell density IgE activation: hexosaminidase; assay type: cell-based, mouse; conditions: read-out: BMMC anti-IgE hexos
Description: After sensitizing, cells are counted, pelleted (1000 rpm, 5-10 minutes), and resuspended at 1-3×10^6 cells/ml in MT buffer. Add 100 ul of cell suspension to each well and 100 ul of compound dilutions. The final vehicle concentration is 0.5% DMSO. Incubate at 37° C. (5% CO2) for 1 hour. After 1 hour of compound treatment, stimulate cells with 6× stimulus (60 ng/ml DNP-BSA). Mix wells with the cells and allow plates to incubate at 37° C. (5% CO2) for one hour. After 1 hour incubation, pellet cells (10 minutes, 1000 RPM) and collect 200 ul per well of the supernatant, being careful not to disturb pellet, and transfer to a clean tube or 96-well plate. Place the supernatant plate on ice. During the 4-5 hour step (see next) perform the hexosiminidase assay. Resuspend cell pellet in 240 ul WEI-conditioned media containing 0.5% DMSO and corresponding concentration of compound. […] After incubation, pellet cells (1000 RPM, 10 minutes) and collect 225 ul per well and place in −80° C. until ready to perform ELISAS. ELISAS are performed on appropriately diluted samples (determined empirically for each donor cell population so that the sample measurement falls within the standard curve) following the supplier's instructions.
Add 50 uL of BMMC cell supernatant (see above) to the hexoseaminidase substrate, place at 37° C. for 30 minutes and read the plate at 5, 10, 15, and 30 minutes on a spectrophotometer.

[2] = tested on: bone marrow derived mast cells (BMMC); experiment: BMMC high cell density IgE activation: LTC4; assay type: cell-based, mouse; conditions: read-out: BMMC anti-IgE LTC4
Description: After sensitizing, cells are counted, pelleted (1000 rpm, 5-10 minutes), and resuspended at 1-3×10^6 cells/ml in MT buffer. Add 100 ul of cell suspension to each well and 100 ul of compound dilutions. The final vehicle concentration is 0.5% DMSO. Incubate at 37° C. (5% CO2) for 1 hour. After 1 hour of compound treatment, stimulate cells with 6× stimulus (60 ng/ml DNP-BSA). Mix wells with the cells and allow plates to incubate at 37° C. (5% CO2) for one hour. After 1 hour incubation, pellet cells (10 minutes, 1000 RPM) and collect 200 ul per well of the supernatant, being careful not to disturb pellet, and transfer to a clean tube or 96-well plate. Place the supernatant plate on ice. During the 4-5 hour step (see next) perform the hexosiminidase assay. Resuspend cell pellet in 240 ul WEI-conditioned media containing 0.5% DMSO and corresponding concentration of compound. Incubate BMMC cells for 4-5 hours at 37° C. (5% CO2). After incubation, pellet cells (1000 RPM, 10 minutes) and collect 225 ul per well and place in −80° C. until ready to perform ELISAS. ELISAS are performed on appropriately diluted samples (determined empirically for each donor cell population so that the sample measurement falls within the standard curve) following the supplier's instructions.

Structure (SMILES): COc1cc(Nc2ncc(F)c(Nc3ccc4c(c3)OCCO4)n2)cc(OC)c1 [Compound R926791]
- pIC50 [1]: 7.19
- pIC50 [2]: 6.05
